This is a selection; strong and weak results do not stand in their true shares. Calls of active or inactive are those of the source. Rule as the data show it: active = activation above about 7.8%; inactive = the rest.
Experiment: SMARCA2 (BRM) function activators, primary screen, cell-based, luminescence, high throughput (AID 652017);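 also: 0% = vehicle wells and 100% = reference activator wells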
Conditions: MG213 cells, MMTV-luciferase reporter, dexamethasone, overnight; at 9.1 µM; stronger effect = higher value

SMILES	activation
CN(C(=O)Cc1ccc(Cl)c(Cl)c1)[C@H]1CC[C@@]2(CCCO2)C[C@@H]1N1CCCC1	inactive: 3.72%
CCOP1(=S)c2c(C)nn(CCC#N)c2N=C(c2ccccc2F)N1C (stereo not given)	inactive: 0.01%
O=P(Nc1nccs1)(Oc1ccccc1)Oc1ccccc1	inactive: 0.65%
O=C(O)COc1ccc([As](=O)(O)O)cc1[N+](=O)[O-]	inactive: -0.88%
Nc1ccccc1[As](=O)(O)c1ccccc1	inactive: 3.07%
ClCCSc1nnc(-c2cccnc2)o1	inactive: 1.85%
COC(=O)C1(C)COP(=O)(N2CCCCCC2)OC1 (stereo not given)	inactive: -0.58%
CC(C)c1ccc(OP(=O)(Nc2ccccn2)Oc2ccccc2F)cc1 (stereo not given)	inactive: -1.28%
CC(C)NC(=O)NP(=O)(Oc1ccccc1)Oc1ccccc1	inactive: -2.25%
CCN(CC)C(=S)SC(NC=O)C(Cl)(Cl)Cl (stereo not given)	inactive: 1.71%
O=C(OC1CN2CCC1CC2)c1cccc2[nH]cnc12 (stereo not given)	inactive: 1.74%
C[As](=O)(O)c1cccc(C(=O)O)c1	inactive: 4.62%
O=[As](O)(c1ccc(O)cc1)c1ccccc1O	inactive: 3.52%
O=[N+]([O-])c1ccc(-c2cc([N+](=O)[O-])c(O)c([N+](=O)[O-])c2)cc1	inactive: 4.06%
COc1cc(C(=O)NCC2(N3CCOCC3)CCCCC2)ccc1OCC(C)C	inactive: -0.89%
Cc1ccc(OP(=O)(Nc2ccc([N+](=O)[O-])cn2)Oc2ccc(C)cc2)cc1	inactive: 0.27%
[N-]=[N+]=NC1CCCCC1NC(=O)c1cc([N+](=O)[O-])cc([N+](=O)[O-])c1 (stereo not given)	inactive: -1.04%
Cc1ccc2nc3c(c(C)c2c1)CC(C(Cl)Cl)S3 (stereo not given)	inactive: 0.69%
O=[N+]([O-])c1cc(Oc2ccc([N+](=O)[O-])cc2C(F)(F)F)cc([N+](=O)[O-])c1	inactive: -2.58%
COc1ccc(N/C(=N/P(=O)(N2CCOCC2)N2CCOCC2)N2CCOCC2)cc1	inactive: -3.86%
Cc1c2c(nc3ccccc13)SC(C(Cl)Cl)C2 (stereo not given)	inactive: 0.24%
O=C(OC1CN2CCC1CC2)C12CC3CC(CC(C3)C1)C2 (stereo not given)	inactive: 2.62%
Cc1cc(=O)[nH]c(N[N+](=O)[O-])n1	inactive: 0.23%

SMILES	activation
O=P1(N(CCCl)CCCl)Nc2ccccc2N1	inactive: 2.63%
O=P1(N(CCCl)CCCl)OCCCN1CCCl (stereo not given)	inactive: -0.93%
COc1ccc2nc(NP(=O)(c3ccccc3)c3ccccc3)sc2c1	inactive: -2.29%
COc1cc(I)ccc1[As](=O)(O)O	inactive: 2.13%
O=C(OC1CN2CCC1CC2)c1cccc([N+](=O)[O-])c1 (stereo not given)	inactive: 0.81%
CCOC(=O)c1ccc(NC(=O)C(C)(CCl)SC)cc1 (stereo not given)	inactive: 4.65%
CCC(C)N(CC(C)C)C(=S)SC(NC(C)=O)C(Cl)(Cl)Cl (stereo not given)	inactive: -5.88%
COP1(=S)c2c(C)nn(CCC#N)c2N=C(c2ccc(F)cc2)N1C (stereo not given)	inactive: -3.18%
COC(=O)C1(C)COP(=O)(N2CCCC2)OC1 (stereo not given)	inactive: -3.59%
O=C(O)C(=O)c1ccc(N(CCCl)CCCl)cc1	inactive: -1.57%
O=C(COc1ccccc1)OC1CN2CCC1CC2 (stereo not given)	inactive: -0.43%
O=C(Nc1ccncc1[N+](=O)[O-])c1ccc([N+](=O)[O-])cc1[N+](=O)[O-]	inactive: -0.5%
CCOC(=O)Nc1cccc([As](=O)(O)O)c1	inactive: -2.77%
Cc1cc(SC(NC=O)C(Cl)(Cl)Cl)ncn1 (stereo not given)	inactive: 0.18%
O=P(Nc1ccccn1)(c1cccc2ccccc12)c1cccc2ccccc12	inactive: -3.02%
O=[N+]([O-])c1ccc(Nc2ccc(Oc3ccc([N+](=O)[O-])cc3[N+](=O)[O-])cc2)c([N+](=O)[O-])c1	inactive: -1.48%
O=C(O)C(O)c1ccc(N(CCCl)CCCl)cc1 (stereo not given)	inactive: 0.34%
CCOC(=O)Nc1ccc([As](=O)(O)O)c(O)c1	inactive: 3.59%
CC1CCNP(=O)(N(CCCl)CCCl)O1 (stereo not given)	inactive: -5.01%
COP(=O)(OC)N1CC1c1ccccc1 (stereo not given)	inactive: -2.33%
CCCCOc1ccc(C(=O)NCC2(N3CCCCC3)CCCCC2)cc1OC	inactive: 0.52%
Cc1cc(SC(NC(=O)c2ccccc2)C(Cl)(Cl)Cl)nc(C(C)C)n1 (stereo not given)	inactive: -1.48%

— PubChem BioAssay AID652017 (The Scripps Research Institute Molecular Screening Center, 2013)
